Data: PubChem BioAssay AID1259310 (The Scripps Research Institute Molecular Screening Center, 2017)
Only a part is listed here, and it is no random draw. Calls of active or inactive are those of the source. Rule as the data show it: active = normalized activity above about 1.9%; inactive = the rest.

By UniProt entry, the sequences of proteins in these tests, tags left out. Where a name states a change or a piece, a line headed by the entry shows the natural chain unless it says otherwise.
UniProt Q969H0, whole entry, stated change not applied: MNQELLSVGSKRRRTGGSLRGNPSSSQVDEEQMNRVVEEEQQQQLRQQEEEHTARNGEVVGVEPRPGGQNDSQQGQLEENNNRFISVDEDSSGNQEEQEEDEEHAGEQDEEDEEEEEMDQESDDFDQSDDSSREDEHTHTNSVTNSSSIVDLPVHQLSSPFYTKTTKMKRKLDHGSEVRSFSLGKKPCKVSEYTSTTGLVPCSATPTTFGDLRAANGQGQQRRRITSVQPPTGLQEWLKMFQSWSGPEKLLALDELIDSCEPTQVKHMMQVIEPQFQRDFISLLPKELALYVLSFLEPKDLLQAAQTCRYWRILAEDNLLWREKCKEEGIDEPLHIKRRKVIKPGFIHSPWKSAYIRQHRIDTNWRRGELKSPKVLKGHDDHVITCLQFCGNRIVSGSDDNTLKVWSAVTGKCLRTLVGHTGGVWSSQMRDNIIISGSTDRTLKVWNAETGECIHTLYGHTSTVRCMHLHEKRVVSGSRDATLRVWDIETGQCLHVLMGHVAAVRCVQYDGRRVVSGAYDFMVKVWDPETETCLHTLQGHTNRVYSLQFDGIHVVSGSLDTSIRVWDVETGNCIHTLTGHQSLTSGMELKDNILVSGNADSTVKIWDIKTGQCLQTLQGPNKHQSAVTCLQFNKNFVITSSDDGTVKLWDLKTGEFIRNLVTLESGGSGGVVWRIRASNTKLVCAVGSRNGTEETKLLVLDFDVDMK

The compounds below were run against F-box/WD repeat-containing protein 7 (Homo sapiens) (UniProt Q969H0) (assay: FBW7 E3 ligase activators, primary screen, biochemical, AlphaScreen, human (AID 1259310;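 also: purified mutant Fbw7 with reduced substrate affinity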)). Conditions: AlphaScreen FBW7–phospho-cyclin E peptide binding, activator screen; at 26.1 µM; stronger effect = higher value.
For `CN(CCCl)CCCl`, the normalized activity (activation) was inactive: 0.03%.
